# AlphaSeq binding of Ab-14 heavy chain variants to a spike HR2 peptide

Binding partner: SARS-CoV-2 spike HR2 peptide, sequence PDVDLGDISGINAS.

Parent scFv Ab-14: VH joined to VL by the linker GGGGSGGGGSGGGGS. Changes lie in the heavy chain CDRs alone.
VH: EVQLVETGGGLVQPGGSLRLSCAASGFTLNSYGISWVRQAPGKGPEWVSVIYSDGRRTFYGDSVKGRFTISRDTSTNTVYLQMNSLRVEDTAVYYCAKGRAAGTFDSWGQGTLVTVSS
VL: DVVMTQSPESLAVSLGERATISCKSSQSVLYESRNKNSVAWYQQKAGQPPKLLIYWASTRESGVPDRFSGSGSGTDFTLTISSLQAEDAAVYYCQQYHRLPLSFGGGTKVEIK

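The starting antibody came from a phage panning campaign against this peptide. Library AAYL49 holds single substitutions and randomly drawn double and triple substitutions in the CDRs. AlphaSeq pools MATa yeast showing the antibodies with MATalpha yeast showing the peptide. The frequency of each diploid, read from paired DNA barcodes, reflects how well the two displayed proteins bind. Scores were corrected for input abundance and mapped to Kd with protein pairs of known affinity run in the same pool. The assay was run in three technical replicates.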

Each variant is given by its three heavy chain CDRs, as the data file delimits them; those of the parent are GFTLNSYGIS, VIYSDGRRTFYGDSVK, GRAAGTFDS.
Scale: log10 of Kd in nM, estimated from mating counts; low values are strong binders.
Replicates are averaged; those with no signal do not enter the mean.
An entry "n.d." has no value in the source: the pair was not observed among the diploids in that replicate. This suggests poor binding but is not conclusive.
Background: pairings of library AAYL49 with three empty control strains gave a value in 15% of cases (median 4.06, 5th percentile 2.83). Values in that range, when seen in few replicates, are hard to tell from nonspecific mating. Also given: how often the same scFv was detected with the empty control strains, with their mean in brackets.

| # | CDR-H1 | CDR-H2 | CDR-H3 | replicates, log10 nM | mean log10 Kd (nM) | empty controls |
|---|---|---|---|---|---|---|
| 1 | GFTKRSYGIS | VIYSDGRRYFYGDSVK | GRAAGTFDS | n.d. / n.d. / n.d. | n.d. | 1/9 (4.23) |
| 2 | GFTLNSYGIY | VTYSDGRSTFYGDSVK | GRAAGTFDS | n.d. / n.d. / 3.69 | 3.69 | 0/9 |
| 3 | GFTLQSYGIS | VIYSDGRRTFYGDYVN | GRAAGTFDS | n.d. / n.d. / n.d. | n.d. | 1/9 (4.43) |
| 4 | GFTLNSEGIS | VIYSDGRRTFYGDSVH | MRAAGTFDS | n.d. / n.d. / n.d. | n.d. | 0/9 |
| 5 | GFTCNSYGIS | VIYSDGRRTFYGDSVK | GRIAGTEDS | n.d. / n.d. / 4.10 | 4.10 | 0/9 |
| 6 | GCTLNSYRIS | VIYSDGRRTFYGDSVK | GRRAGTFDS | n.d. / 3.08 / n.d. | 3.08 | 3/9 (3.78) |
| 7 | GFTLNSYGIS | VIYSDGRRTAYGTSVQ | GRAAGTFDS | 0.60 / 0.63 / 0.80 | 0.68 | 1/9 (4.45) |
| 8 | GKTLNSGGIS | VIHSDGRRTFYGDSVK | GRAAGTFDS | n.d. / n.d. / n.d. | n.d. | 0/9 |
| 9 | GFTLNSYGIS | VIYSDGRRTFEGDSVK | GRYAGTFDS | 2.25 / 2.70 / 2.36 | 2.43 | 0/9 |
| 10 | GFTLNSYGIS | VIYSDGIRTFYFDSVK | GKAAGTFDS | 2.70 / 2.57 / 2.76 | 2.68 | 0/9 |
| 11 | GFTLNSYGIS | VIYSDGRLTFYGDCVK | GSAAGTFDS | n.d. / n.d. / n.d. | n.d. | 0/9 |
| 12 | GFTLNSYGIS | VIDSDGNRTFYGDSVK | GCAAGTFDS | n.d. / n.d. / n.d. | n.d. | 2/9 (3.60) |
| 13 | EFTLNSYGID | VIYSDGVRTFYGDSVK | GRAAGTFDS | n.d. / n.d. / 4.81 | 4.81 | 1/9 (3.75) |
| 14 | MFTLNSYGIS | VIYSDGRETFYGDWVK | GRAAGTFDS | n.d. / n.d. / n.d. | n.d. | 4/9 (4.67) |
| 15 | GFTLNSYGIS | VIYSDGRRTFYLDSVC | GRAAGTFDS | 2.92 / 2.97 / n.d. | 2.94 | 0/9 |
| 16 | GRTLNSYGIS | VIYSDGRRRFYGDWVK | GRAAGTFDS | n.d. / n.d. / n.d. | n.d. | 1/9 (3.91) |
| 17 | GFTLNSYGIS | VICSDGRRTFYGMSVK | GRAAGTFNS | n.d. / 4.58 / n.d. | 4.58 | 0/9 |
| 18 | GFTLNSYGIS | VIYSDNRRTPYGDSVK | GRAAGTFDI | n.d. / n.d. / n.d. | n.d. | 0/9 |
| 19 | GFTLNSYGIS | VICSDGRRTFYGDWVK | GRADGTFDS | 5.46 / n.d. / n.d. | 5.46 | 3/9 (3.65) |
| 20 | GFTLNYYGIS | VGYSDGRRTFLGDSVK | GRAAGTFDS | n.d. / n.d. / 4.55 | 4.55 | 0/9 |
| 21 | EFTLNSYGIS | VIYSDGRRTFYGDSVK | IRKAGTFDS | 2.49 / 2.12 / 2.28 | 2.29 | 0/9 |
| 22 | GFTLNHYRIS | VIYSDGRRTFYGDSVK | GRAIGTFDS | n.d. / 4.24 / 4.41 | 4.33 | 4/9 (5.06) |
| 23 | GFTLNSYGIS | VIYSDGRNTFYGDSYM | GRAAGTFDS | 3.92 / n.d. / n.d. | 3.92 | 0/9 |
| 24 | GFVLNSYGIS | VIYSDGRRTFYGDSVK | GRAAPTWDS | 2.11 / 1.93 / 2.14 | 2.06 | 0/9 |
| 25 | GFTHNSYGIS | PQYSDGRRTFYGDSVK | GRAAGTFDS | 4.76 / n.d. / 5.15 | 4.96 | 6/9 (5.01) |
| 26 | GFTLSSYGIS | VIRSDGRRTFYGDSVV | GRAAGTFDS | 3.62 / n.d. / n.d. | 3.62 | 2/9 (3.53) |
| 27 | GFTLNSYGIS | VIYVDGRRKFYGDSVK | GRAARTFDS | n.d. / n.d. / n.d. | n.d. | 0/9 |
| 28 | GFTPNSYGIS | VIYSDGMRTFYGDSVD | GRAAGTFDS | 2.11 / 1.96 / 2.61 | 2.22 | 0/9 |
| 29 | GFTLNSYGIS | VIYSDGRRTFMGDSVK | GREAGTTDS | n.d. / 4.12 / 3.67 | 3.89 | 1/9 (3.10) |
| 30 | GFCLNSYGIS | VILSDLRRTFYGDSVK | GRAAGTFDS | n.d. / 3.05 / 3.64 | 3.35 | 1/9 (4.42) |
| 31 | GFTLNSYGIS | VIYSDGRRMFYGDSVK | GRAADTFDV | n.d. / n.d. / n.d. | n.d. | 1/9 (2.98) |
| 32 | GFTLNSYCIS | VIYSDGRRTFYGDSKK | GCAAGTFDS | n.d. / n.d. / n.d. | n.d. | 0/9 |
| 33 | MFTLNSYGIS | VIYSDGRRLFYGDSVK | GRANGTFDS | n.d. / n.d. / n.d. | n.d. | 0/9 |
| 34 | GFTLVSYGIS | VIFSDGRRTFYGDSVK | GRRAGTFDS | n.d. / 4.64 / 3.59 | 4.12 | 6/9 (4.39) |
| 35 | GFTLNSYGIS | VIYSDGRRDFYGDSFK | GRAAGTQDS | n.d. / n.d. / 4.74 | 4.74 | 2/9 (5.49) |
| 36 | VFTLNSYGIS | YIYSDGRRTFYGDSVK | GRKAGTFDS | n.d. / 3.18 / n.d. | 3.18 | 1/9 (3.07) |
| 37 | GFTLNSYVIS | VIYSDGRRTFYGDSVK | GRAAGTFRW | n.d. / n.d. / n.d. | n.d. | 0/9 |
| 38 | GFTLNSPGIS | VIYMDGRRTNYGDSVK | GRAAGTFDS | 5.74 / n.d. / 4.67 | 5.21 | 1/9 (3.18) |
| 39 | GFTLNSYIIS | VIYSDGVRTFYGDSVK | GRAAGTFDS | n.d. / n.d. / n.d. | n.d. | 0/9 |
| 40 | GFTLNSYGIS | YIYSDGIRTFYGDSVK | GRAAGTFDS | n.d. / n.d. / 5.33 | 5.33 | 0/9 |
| 41 | GFTLNSYYIS | VIYYDVRRTFYGDSVK | GRAAGTFDS | n.d. / n.d. / 4.10 | 4.10 | 1/9 (3.60) |
| 42 | GPTLNRYGIS | VIYSDGRRTFYGDSVK | GRAAGLFDS | n.d. / 4.48 / n.d. | 4.48 | 0/9 |
| 43 | GFTLNSYGIS | VIYSDGRRTVYGDSVK | GRAFGAFDS | n.d. / n.d. / n.d. | n.d. | 0/9 |

Top 4 of the variants detected in all replicates, tightest first:

{"CDR-H1": "GFTLNSYGIS", "CDR-H2": "VIYSDGRRTAYGTSVQ", "CDR-H3": "GRAAGTFDS", "replicates, log10 nM": "0.60 / 0.63 / 0.80", "mean log10 Kd (nM)": "0.68", "empty controls": "1/9 (4.45)"}
{"CDR-H1": "GFVLNSYGIS", "CDR-H2": "VIYSDGRRTFYGDSVK", "CDR-H3": "GRAAPTWDS", "replicates, log10 nM": "2.11 / 1.93 / 2.14", "mean log10 Kd (nM)": "2.06", "empty controls": "0/9"}
{"CDR-H1": "GFTPNSYGIS", "CDR-H2": "VIYSDGMRTFYGDSVD", "CDR-H3": "GRAAGTFDS", "replicates, log10 nM": "2.11 / 1.96 / 2.61", "mean log10 Kd (nM)": "2.22", "empty controls": "0/9"}
{"CDR-H1": "EFTLNSYGIS", "CDR-H2": "VIYSDGRRTFYGDSVK", "CDR-H3": "IRKAGTFDS", "replicates, log10 nM": "2.49 / 2.12 / 2.28", "mean log10 Kd (nM)": "2.29", "empty controls": "0/9"}

Reference: Engelhart et al. 2022, doi:10.1038/s41597-022-01779-4. File: FLAb, binding data.